# Measured values taken from US6608082B1, “Treatment of erectile dysfunction using isoquinoline compound melanocortin receptor ligands” (Lion Bioscience AG, priority 1998, dated 2003).
# Protein sequences, listed by entry. Tags and fused reporters are not part of them.
# UniProt P33032, whole entry: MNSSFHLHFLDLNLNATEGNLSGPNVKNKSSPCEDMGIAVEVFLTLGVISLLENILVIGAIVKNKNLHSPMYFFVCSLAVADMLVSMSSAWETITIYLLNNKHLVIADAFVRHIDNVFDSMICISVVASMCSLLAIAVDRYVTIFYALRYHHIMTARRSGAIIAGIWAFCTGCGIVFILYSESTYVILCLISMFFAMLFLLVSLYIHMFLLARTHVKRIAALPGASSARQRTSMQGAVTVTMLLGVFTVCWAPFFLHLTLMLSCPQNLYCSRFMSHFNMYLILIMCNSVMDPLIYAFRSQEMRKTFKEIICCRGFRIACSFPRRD
# What was measured:
# MCR-5 = MCR-5 (Homo sapiens, UniProt P33032); experiment: Melanocortin receptor binding assay, competition with 125I-HP 467, HEK 293 cells expressing hMCR-5; conditions: read-out: MC-5 IC50; binding to MCR-5, HEK 293 cells
# Text: All cell culture media and reagents were obtained from GibcoBRL (Gaithersburg Md.), except for COSMIC CALF SERUM (HyClone; Logan Utah). HEK-293 cell lines were transfected with the human MC receptors hMCR-1, hMCR-3, and hMCR-4 (Gantz et al., Biochem. Biophys. Res. Comm. 200:1214-1220 (1994); Gantz et al., J. Biol. Chem. 268:8246-8250 (1993); Gantz et al. J. Biol. Chem. 268:15174-15179 (1993); Haskell-Leuvano et al., Biochem. Biophys. Res. Comm. 204:1137-1142 (1994); each of which is incorporated herein by reference). […]
# GF/B filter plates were prepared by soaking for at least one hour in 5 mg/ml BSA and 10 mM CaCl2. […] Filter plates were counted using a Packard Topcount (Packard Instrument Co.) and data analyzed using GraphPad PRISM v2.0 (GraphPad Software Inc.; San Diego Calif.) and Microsoft EXCEL v5.0a (Microsoft Corp.; Redmond Wash.).
# To assay isoquinoline compounds, binding assays were performed in duplicate in a 96 well format. […] Cells were harvested on GF/B filter plates as described above and counted. […]
# TNF-α = experiment: Reduction of lipopolysaccharide-induced tumor necrosis factor levels in mice; conditions: plasma 90 or 105 minutes after LPS, mean ± SEM
# Experimental: BALB/c female mice weighing approximately 20 g were placed into a control group and a treated group. Five mg/kg of LPS in 0.9% saline was administered (100 μl to give 100 μg LPS per mouse) by intraperitoneal (IP) injection to all mice. Mice in the treatment group received either 30, 100, 300 or 600 μg of various isoquinoline compounds per mouse in a volume of 100 μl of PBS. Control mice received 100 μl of saline alone. One minute after initial injections all mice received the LPS injection. As a positive control, 100 μg of HP 228 was injected per mouse.
# Blood samples were collected from the orbital sinus of treated and control mice 90 minutes or 105 minutes after LPS administration. The plasma was separated by centrifugation at 3000×g for 5 min and stored at −20° C. Samples were thawed and diluted, if TNF-α concentration was greater than 3200 pg/ml, with PBS containing 1% bovine serum albumin, 10% donor horse serum, 1% normal mouse serum, 0.05% TWEEN-20 and 0.05% thimerosal. A 100 μl sample of plasma was assayed by ELISA for TNF-α. […] Plates were washed and incubated with streptavidin-HRP for 1 hr at 37° C., and HRP activity was detected with hydrogen peroxide and o-phenylenediamine (OPD) using standard immunoassay procedures.
# The mean (±SEM) TNF-α level in five mice from each group was determined and the percent reduction in TNF-α levels was calculated. […]
structure (smiles),measurement,setting,value
CCNc1ccc(C2C(CNCc3ccccc3O)c3ccccc3CN2CCCC[C@@H](CN)NC)cc1 (stereo partly drawn),IC50,MCR-5,> 10 µM
same,"% TNF-α Inhibtion, IP 30",TNF-α; 30 μg per mouse,34 ± 14%
same,"% TNF-α Inhibtion, IP 300",TNF-α; 300 μg per mouse,83 ± 11 %
